Measurements reported in patent publication US5496697A, “Methods and apparatus for detecting the effect of cell affecting agents on living cells” (priority 1993, dated 1996).

Test system: M1C-2 cells
Assay: metabolic rate of M1C-2 cells, lack of β2-adrenergic receptors
Conditions: isoproterenol, FIG. 27

For `CC(C)NCC(O)c1ccc(O)c(O)c1` (stereo not shown), the “effect on metabolic rate” value was “no effect”.
